Results as given in patent US8530636B2, “Method for regulating protein function in cells in vivo using synthetic small molecules” (priority 2008, dated 2013).

Test system: L106P-RhoA, L106P-Cdc42, Arl7-L106P
Format: cell-based, human
Details: NIH3T3, Shield1-treated, mock-treated or Shield1 removed
Method: At this time, cells were washed once with PBS, plated at 8×10^3 cells in 4-well LabTek Chambered coverglass (NUNC) coated with 1 mg/ml poly-D-lysine (Sigma), along with mock-treated transduced cells and transduced cells treated with 1 μM Shield1. Cells were cultured for 24 hr in 10% DBS, then cultured in serum-free media for 12 hr. Cells were then washed with PBS, fixed in 4% paraformaldehyde for 15 min, permeabilized in 0.2% Triton X-100 for 5 min, stained with 1 μg/ml Alexa Fluor 488-conjugated phalloidin (Invitrogen; A12379) in PBS for 20 min, and washed with PBS. Fixed cells were imaged using a Bio-Rad Radiance 2100 confocal microscope.
Expression of constitutively active small GTPases causes well-characterized changes in cellular morphology (Heo, W. D. and Meyer, T. (2003) Cell 113:315-328). To determine if FKBP-derived destabilizing domains, in combination with Shield1, could affect cell morphology by modulating GTPases levels, several small GTPases (i.e., RhoA, Cdc42, or Arl7) were fused to the destabilizing domains (FIGS. 4A and 4B). […] . […] Mock treatment with Shield1 produced cells with fibroblast-like morphologies. These GTPase-dependent morphology changes were reversible, as treatment with Shield1 followed by removal of Shield1 also produced cells with fibroblast-like morphologies. […]

Q: “1-[2-(3,4,5-trimethoxy-phenyl)-butyryl]-piperazine-2-carboxylic acid 3-(3,4-dimethoxy-phenyl)-1-[3-(2-morpholin-4-yl-ethoxy)-phenyl]-propyl ester [Shield1]” was tested. Which “Cells displaying the predicted morphology” value did it give?
A: Its value is over 90%.
